Experimental data taken from article PMC3992280 (Biochimica et biophysica acta, 2014).

System: Mycobacterium smegmatis strain mc^2155
Format: cell-based
Conditions: mc^2155 versus RHS 234

## CO[C@H]1/C=C/O[C@@]2(C)Oc3c(C)c(O)c4c(O)c(c(/C=N/N5CCN(C)CC5)c(O)c4c3C2=O)NC(=O)/C(C)=C\C=C\[C@H](C)[C@H](O)[C@@H](C)[C@@H](O)[C@@H](C)[C@H](OC(C)=O)[C@@H]1C [Rifampin]
  resistance factor R (MICwt/MICmutant): 8
